Key:
actin filaments [1] = target: T1, actin filaments (Alexa488 label on 3-20% of the actin in the microscopy assays); experiment: TIRF microscopy of single filaments
actin filaments [2] = target: T1, actin filaments; experiment: TIRF microscopy of single filaments; remark: listed apart in the source

B1: Cy5-Tm1A (AS-Tm1A C32A/S82C labeled with Cy5-maleimide; non-muscle Drosophila tropomyosin isoform Tm1A) (natural protein)
chain: MASMTTSIPQGTLLDVLKKKMRQTKEEMEKYKDEAEEFHKRLQLEVVRREEAESEVAALNRRIQLLEEDLERSEERLGSATAKLCEASQAADESERIRKALENRTNMEDDKVALLENQLAQAKLIAEEADKKYEEVARKLVLMEQDLERSEEKVELSESKIVELEEELRVVGNNLKSLEVSEEKATQKEETFETQIKVLDHSLKEAEARAEFAERSVQKLQKEVDRLEDDLLNVRGKNKLLQEEMEATLHDIQNM
modifications: Cy5-maleimide label
- t1/2 of the initial interaction (actin filaments [1]): 12.1 min
- Kd (actin filaments [2]): 22 nM
